Values quoted from earlier work in US9422521B2, “Differentiation of pluripotent stem cells with a kinase inhibitor or PGI2” (ES Cell International Pte Ltd., priority 2005, dated 2016).

Tested on: mouse ES cells
Settings: cited from earlier work

## O=[N+]([O-])c1ccc(-c2nc(-c3ccncc3)c(-c3ccc(F)cc3)[nH]2)cc1 [PD169316]
  cardiomyogenesis in mouse ES cells: prevented cardiomyogenesis
  neurogenesis in mouse ES cells: induced neurogenesis
